The assay has as its system HCV replicon (1b) in Clone A cells (derived from Huh-7). The experiment in a line: HCV replicon ELISA (NS5a) in Clone A cells. It counts as cell-based, Hepatitis C virus. As to conditions: 3 days incubation, reference compound. As for the experimental part:
The ability of the compounds of the present invention to inhibit Hepatitis C virus replicon constitutively expressed in a human liver cell line was established by the following experimental procedure:
Clone A cells (licensed from Apath, LLC) are derived from Huh-7 cells (human hepatoma cell line) and constitutively express of the HCV replication proteins with concomitant amplification the HCV replicon (1b) genome. Cells are maintained and passaged in DMEM/10% FCS/1 mg/ml G418 (Geneticin from Gibco #11811-023; other media components as described below in “elisa media”). Care should be taken to maintain cell monolayers at a subconfluent state by 1:3 or 1:4 passages every 3-4 days. The replicon is extremely sensitive to the cellular metabolism/proliferation state and replicon copy number will rapidly decline in confluent monolayers (resting cells). Under ideal conditions each cell has, on average, 1000 copies of the HCV replicon genome. […]
10 μl of compounds (in DMSO) are added to column 3 of the mother plate. […] Mother plates are set aside until ready for serial dilution to be performed. […]

Consider “Interferon-a2: reference compound of the HCV replicon ELISA assay”, for which the IC50 was 4-30 U/ml.

(Values after US7250441B2, “Carbazole and cyclopentaindole derivatives to treat infection with Hepatitis C virus” (priority 2004, dated 2007).)
